This note sets out measurements from patent US20250145963A1, “Improved Differentiation Method” (Koninklijke Nederlandse Akademie Van Wetenschappen, priority 2016, published 2025).

This test concerns intestinal organoids. The test is described as follows: Cellular composition of organoids after EGFRi treatment (goblet and Tuft cell staining). The settings on record: versus ENR.

On to `COc1cc2ncnc(Nc3ccc(F)c(Cl)c3)c2cc1OCCCN1CCOCC1` [Gefitinib], for which the “increase in absolute number of Dclk1+ Tuft cells” value amounted to 3.2 fold.
